The source of these data is patent US12324893B2, “Triptan microporation delivery system” (PassPort Technologies, Inc., priority 2019, dated 2025).

The nature of the data set: Administration route study in hairless rats with Sumatriptan Succinate (Example 10). The note with it: rat, in vivo, topical or ocular, 3 mg. Here is the method: In this study, four groups of hairless rats were tested under the following conditions: (1) Group 1 (3 mg free base API, Suc: 0.5 mg, AA: 1 mg); (2) Group 2 (6 mg free base API, Suc: 0.5 mg, AA: 1 mg); (3) Group 3 (9 mg free base API, Suc: 0.5 mg, AA: 1 mg); and (4) Group 4 (6 mg free base API per 100 μL head of saline).
The given bioavailability of Table 18 is relative bioavailability against SC injection.

The term Tmax denotes the time at which the peak concentration occurs. Consider `CNS(=O)(=O)Cc1ccc2[nH]cc(CCN(C)C)c2c1` [Sumatriptan Succinate], for which the Tmax was 48 min.
